The chains behind the UniProt entries cited, without tags or fusion partners. A line that says so, or that is headed by a name, gives the form on record, which may keep a tag or linker.
UniProt P13569, whole entry: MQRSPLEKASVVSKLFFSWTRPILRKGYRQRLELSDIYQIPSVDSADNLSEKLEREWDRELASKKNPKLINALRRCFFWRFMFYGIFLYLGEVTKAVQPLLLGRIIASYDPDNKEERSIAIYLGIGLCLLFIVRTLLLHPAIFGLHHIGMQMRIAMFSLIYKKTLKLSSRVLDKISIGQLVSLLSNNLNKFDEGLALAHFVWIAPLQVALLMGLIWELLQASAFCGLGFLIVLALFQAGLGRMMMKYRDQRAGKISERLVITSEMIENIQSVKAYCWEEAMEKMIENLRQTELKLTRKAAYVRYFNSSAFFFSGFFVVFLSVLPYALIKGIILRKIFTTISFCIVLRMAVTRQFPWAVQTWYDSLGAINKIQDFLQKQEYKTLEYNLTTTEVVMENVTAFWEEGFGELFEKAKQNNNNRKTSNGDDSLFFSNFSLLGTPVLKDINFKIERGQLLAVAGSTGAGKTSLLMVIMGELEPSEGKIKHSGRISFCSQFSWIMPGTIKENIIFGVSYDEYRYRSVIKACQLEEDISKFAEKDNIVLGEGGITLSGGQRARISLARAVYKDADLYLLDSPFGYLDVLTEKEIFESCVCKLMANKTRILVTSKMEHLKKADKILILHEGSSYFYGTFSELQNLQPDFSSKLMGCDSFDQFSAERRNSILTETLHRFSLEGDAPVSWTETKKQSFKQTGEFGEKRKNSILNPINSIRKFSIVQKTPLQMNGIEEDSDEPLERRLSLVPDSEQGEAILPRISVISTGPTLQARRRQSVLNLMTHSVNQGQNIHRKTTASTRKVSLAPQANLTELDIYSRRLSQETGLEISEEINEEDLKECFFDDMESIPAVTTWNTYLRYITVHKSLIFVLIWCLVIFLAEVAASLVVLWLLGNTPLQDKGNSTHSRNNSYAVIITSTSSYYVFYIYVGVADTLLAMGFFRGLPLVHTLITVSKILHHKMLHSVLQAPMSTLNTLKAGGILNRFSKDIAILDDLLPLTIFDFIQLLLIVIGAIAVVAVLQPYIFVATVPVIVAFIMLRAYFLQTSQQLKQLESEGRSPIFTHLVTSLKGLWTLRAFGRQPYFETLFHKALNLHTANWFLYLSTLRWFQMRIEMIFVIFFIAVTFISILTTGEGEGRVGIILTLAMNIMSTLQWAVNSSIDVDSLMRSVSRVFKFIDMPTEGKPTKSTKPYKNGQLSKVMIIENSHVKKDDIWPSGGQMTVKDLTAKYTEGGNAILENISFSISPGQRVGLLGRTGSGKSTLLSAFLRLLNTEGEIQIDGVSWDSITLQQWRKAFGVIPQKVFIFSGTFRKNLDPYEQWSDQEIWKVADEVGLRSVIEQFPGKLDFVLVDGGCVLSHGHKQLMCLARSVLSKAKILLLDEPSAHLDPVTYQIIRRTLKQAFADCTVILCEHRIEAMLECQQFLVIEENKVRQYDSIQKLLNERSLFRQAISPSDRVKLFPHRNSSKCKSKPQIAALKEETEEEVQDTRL
UniProt P13569, other isoform, or with tags, fused parts or gaps I539T/del F508-F508: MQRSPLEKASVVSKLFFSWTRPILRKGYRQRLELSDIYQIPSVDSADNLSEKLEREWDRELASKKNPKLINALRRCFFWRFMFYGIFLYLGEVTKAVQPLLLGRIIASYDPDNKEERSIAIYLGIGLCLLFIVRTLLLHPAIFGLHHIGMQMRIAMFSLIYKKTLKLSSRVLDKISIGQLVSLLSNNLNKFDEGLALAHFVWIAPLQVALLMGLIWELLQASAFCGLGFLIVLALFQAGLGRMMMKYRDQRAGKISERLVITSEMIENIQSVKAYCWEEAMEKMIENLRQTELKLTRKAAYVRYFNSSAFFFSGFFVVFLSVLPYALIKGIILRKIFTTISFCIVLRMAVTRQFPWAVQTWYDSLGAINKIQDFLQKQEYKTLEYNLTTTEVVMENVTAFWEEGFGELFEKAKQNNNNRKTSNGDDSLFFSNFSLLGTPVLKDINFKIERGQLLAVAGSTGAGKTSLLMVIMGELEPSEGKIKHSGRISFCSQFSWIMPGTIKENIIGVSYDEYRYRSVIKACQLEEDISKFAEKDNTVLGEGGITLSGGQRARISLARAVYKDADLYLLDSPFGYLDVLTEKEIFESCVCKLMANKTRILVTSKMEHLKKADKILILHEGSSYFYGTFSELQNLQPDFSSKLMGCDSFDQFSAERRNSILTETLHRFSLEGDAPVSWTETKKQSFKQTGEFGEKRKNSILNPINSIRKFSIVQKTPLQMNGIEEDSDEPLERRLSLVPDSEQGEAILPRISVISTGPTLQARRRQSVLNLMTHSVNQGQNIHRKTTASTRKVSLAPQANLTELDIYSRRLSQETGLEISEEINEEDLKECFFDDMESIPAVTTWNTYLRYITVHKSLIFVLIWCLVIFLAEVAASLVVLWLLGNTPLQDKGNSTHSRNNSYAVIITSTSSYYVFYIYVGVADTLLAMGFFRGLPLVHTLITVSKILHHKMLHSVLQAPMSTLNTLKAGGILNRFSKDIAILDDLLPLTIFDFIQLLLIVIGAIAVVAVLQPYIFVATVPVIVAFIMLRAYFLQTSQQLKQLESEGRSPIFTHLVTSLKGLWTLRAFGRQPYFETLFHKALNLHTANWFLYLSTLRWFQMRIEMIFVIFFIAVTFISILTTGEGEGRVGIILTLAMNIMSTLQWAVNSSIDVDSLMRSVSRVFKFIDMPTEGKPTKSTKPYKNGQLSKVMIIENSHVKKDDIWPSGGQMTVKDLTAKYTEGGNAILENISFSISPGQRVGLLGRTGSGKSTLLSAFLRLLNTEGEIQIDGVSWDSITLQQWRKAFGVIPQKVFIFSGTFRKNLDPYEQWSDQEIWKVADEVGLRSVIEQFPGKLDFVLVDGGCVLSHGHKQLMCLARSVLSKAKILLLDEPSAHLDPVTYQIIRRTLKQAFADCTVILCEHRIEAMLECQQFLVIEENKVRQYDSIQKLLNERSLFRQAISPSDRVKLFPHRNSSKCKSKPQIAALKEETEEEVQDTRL

According to patent publication US10130622B2, “Compounds for treatment of cystic fibrosis” (AbbVie S.à.r.l., priority 2015, dated 2018):

How the values were obtained:
[1] = molecular target: WT CFTR (Homo sapiens (Human), UniProt P13569); assay: TruBind back scattering interferometry (BSI) direct binding; settings: HEK293 WT CFTR membrane fractions, 4 hours room temperature, one-site binding fit
Description: Backscattering interferometry (BSI) uses light interaction with a microfluidic channel to measure temporal changes in refractive index (RI) that result from changes in target shape and solvation when molecular complexes form.
The TruBind BSI System employs an optical train comprised of a coherent light source (HeNe laser), a microfluidic interferometric channel (object) and a CMOS array (detector). Upon coherent-laser illumination of a microfluidic channel, a highly modulated fringe pattern is produced perpendicular to the channel. Its bright and dark features shift position with changes in the RI of the sample and monitoring this shift forms the basis of BSI. This information can be used to perform label free equilibrium Kd measurements in complex biological matrices […]
For compound testing HEK293 WT CFTR or HEK293 membrane fractions, at final concentration of 10 μg/mL in 50 mM Tris-HCl pH 7.5, 1 mM EDTA with 1.2% DMSO were mixed 1/1 with a serial dilution of the compound, starting from 10 μM, in 50 mM Tris-HCl pH 7.5, 1 mM EDTA with 1.2% DMSO. […] Samples were measured in quadruplicate in dual channel mode which allows the simultaneous measurement of specific, WT CFTR membranes (assay), as well as unspecific, control membranes (reference). […]

[2] = molecular target: F508del/I539T CFTR (Homo sapiens (Human), UniProt P13569, DEL508-508/I539T); assay: YFP-halide influx assay (YHA) I539T; assay type: cell-based; settings: HEK293, 24 h compound, forskolin 10.67 μM + GLPG1837 0.5 μM; read-out: IEC IC50/EC50 (YHA I539T; head over this column printed as YHA G550E)

SMILES	Kd [1]	EC50 [2]
CS(=O)(=O)NC(=O)c1cc(-c2ccc(N3CCC(C#N)CC3)nc2)c2c(C3CCC3)nn(-c3ccccc3)c2n1 [drawing 9]	20.2 ± 4.8 nM	
CS(=O)(=O)NC(=O)c1cc(-c2ccc(N3CCC(C#N)CC3)nc2)c2c(C3CCC3)nn(-c3ccccc3)c2n1 [drawing 7]		496 nM
